Apparent affinities of Ab-14 variants for a coronavirus HR2 peptide

The target is the same throughout: PDVDLGDISGINAS, from the HR2 region of SARS-CoV-2 spike.

Parent scFv Ab-14: VH joined to VL by a (GGGGS)3 linker. Changes lie in the light chain CDRs alone.
VH: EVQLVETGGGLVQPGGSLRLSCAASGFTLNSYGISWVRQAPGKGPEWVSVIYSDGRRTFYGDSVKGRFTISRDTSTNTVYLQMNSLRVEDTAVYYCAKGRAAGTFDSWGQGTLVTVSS
VL: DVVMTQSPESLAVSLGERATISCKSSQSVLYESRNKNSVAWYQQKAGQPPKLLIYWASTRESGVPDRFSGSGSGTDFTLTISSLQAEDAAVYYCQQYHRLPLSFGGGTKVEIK

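The starting antibody came from a phage panning campaign against this peptide. Variants in AAYL50 differ from the parent at up to three CDR positions; double and triple changes were sampled at random. The scFvs were displayed on barcoded MATa yeast, the peptide on MATalpha yeast. Pairs that bind mate more often; barcode pairs of the diploids are counted by sequencing. Each replicate has its own calibration line, from reference interactions of the BCL2 family. Mating was done three times.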

Changes read parent residue, position, new residue, counted from the first residue of the VL shown.
Values are log10 of the apparent Kd in nM; lower means stronger binding.
Averages over replicates are reported, and they cover detected replicates only.
Where no diploid with the target was found in any replicate, the entry reads "not detected": below detection, most likely a poor binder, though not proof of it.
Three control strains display no target. For library AAYL50, 18% of the pairings with them gave a signal, with a median of 4.19 and one signal in twenty below 2.99, so weak values seen in few replicates may be background. Also given: how often the same scFv was detected with the empty control strains.
Parent in this assay: reference entry 0.65, copy in this library 1.68.

| changes | log10 Kd (nM), mean | detected | empty controls |
|---|---|---|---|
| S25C/Q27P/E61H | 0.27 | 3/3 | 0/9 |
| S25K/T59Q/R60V | 4.63 | 2/3 | 1/9 |
| S26P/Q95S | 2.34 | 3/3 | 0/9 |
| Y31D/L100T | 6.36 | 2/3 | 5/9 |
| Q27W/Y31F/V39L | 1.59 | 3/3 | 2/9 |
| K24T/H98P | 5.40 | 1/3 | 3/9 |
| Y31H/N35L/L100Y | 0.66 | 3/3 | 1/9 |
| K24R/S25I/E32D | -0.15 | 3/3 | 3/9 |
| Q27A/L30I/V39N | 3.69 | 1/3 | 0/9 |
| A40D/Q95T/Y97C | not detected | 0/3 | 2/9 |
| N35Y/R60C/Q96S | 4.22 | 3/3 | 4/9 |
| E32V/E61L/L102M | not detected | 0/3 | 0/9 |
| V29D/R34S/K36S | 1.22 | 3/3 | 3/9 |
| R60H/Q96M/H98K | 3.15 | 1/3 | 0/9 |
| Y31N/E61H/Y97T | not detected | 0/3 | 1/9 |
| S33K/A57D/S103I | 3.39 | 3/3 | 2/9 |
| S62T/Y97G/L102G | 0.81 | 3/3 | 0/9 |
| E32Y/Q96N/P101G | not detected | 0/3 | 0/9 |
| A40F/P101G/S103K | 5.25 | 1/3 | 0/9 |
| S58M/Q95L/P101W | 6.06 | 3/3 | 4/9 |
| V29S/A40T/Q96M | not detected | 0/3 | 0/9 |
| S28M/E61C/Q95Y | 5.43 | 2/3 | 1/9 |
| E32V/S38K | not detected | 0/3 | 0/9 |
| Y31L/K36H/R99T | 0.87 | 3/3 | 1/9 |
| Q27C/N37I/R99F | not detected | 0/3 | 0/9 |
| Q96V/Y97V/L102E | not detected | 0/3 | 0/9 |
| K24M/S38T/P101K | not detected | 0/3 | 0/9 |
| S26E/S38L/L100G | not detected | 0/3 | 0/9 |
| E32V/K36Q/T59N | 4.83 | 2/3 | 3/9 |
| Q27M/N37D/H98Y | 0.75 | 3/3 | 1/9 |
| S33H/R60K/L102W | 4.09 | 2/3 | 4/9 |
| S28V/A57G/L100R | 1.88 | 3/3 | 3/9 |
| S28G/E61S/Y97E | not detected | 0/3 | 1/9 |
| S26V/K36H/Y97P | 2.85 | 3/3 | 5/9 |
| L30R/S58V/R60E | not detected | 0/3 | 0/9 |
| N35I/S38I/V39W | not detected | 0/3 | 0/9 |
| R34G/V39A/A40S | 4.06 | 1/3 | 0/9 |
| K24F/S28F/H98T | 3.34 | 3/3 | 7/9 |
| L30C/E61Y/H98E | 2.47 | 3/3 | 1/9 |
| K36C/Q96H/S103N | 3.72 | 1/3 | 0/9 |
| V29F/L30D/N37K | 1.18 | 3/3 | 2/9 |
| S28L/T59D | 3.98 | 1/3 | 3/9 |
| S33G/K36I/S103L | 0.89 | 3/3 | 4/9 |
| A57N/L102I/S103A | 4.29 | 1/3 | 1/9 |
| S25W/V29K/E32Q | 5.21 | 1/3 | 2/9 |
| S38G/W56T/P101M | 4.89 | 3/3 | 3/9 |
| R34D/K36M/L102E | 0.56 | 3/3 | 5/9 |
| E32L/N35C/V39Y | not detected | 0/3 | 1/9 |
| K24W/S33P/R34A | 2.81 | 3/3 | 0/9 |
| S33H/A57P/S58Y | 4.51 | 1/3 | 1/9 |
| S25G/S33N/A57G | 0.74 | 3/3 | 0/9 |
| A57E/S58L/S62G | 4.02 | 1/3 | 1/9 |
| S33G/S38V | 3.59 | 1/3 | 0/9 |
| Q27E/S33G/V39W | 4.72 | 1/3 | 3/9 |
| S26L/L30Q/T59A | 2.04 | 3/3 | 2/9 |
| S62L/R99H/P101H | 4.12 | 1/3 | 0/9 |
| S33D/V39W/R99P | not detected | 0/3 | 2/9 |
| K24H/E32I/W56H | 1.39 | 3/3 | 3/9 |
| R34M/E61R/L102Y | not detected | 0/3 | 0/9 |
| K24E/R34K/S103Q | 2.75 | 3/3 | 1/9 |
| N35K/N37D/S62G | 2.39 | 3/3 | 1/9 |
| N37G/S38G/A40M | 4.89 | 2/3 | 3/9 |
| S25G/E32W/Q96L | 3.62 | 3/3 | 3/9 |
| V29W/V39C/L100T | 3.31 | 1/3 | 0/9 |
| Q27F/K36N/R99M | not detected | 0/3 | 0/9 |
| R34C/E61A/Q95W | 4.10 | 3/3 | 5/9 |
| S25E/Q27I/Y31G | 0.78 | 3/3 | 5/9 |
| K36Y/A57V | not detected | 0/3 | 1/9 |
| V29H/R60N/S103Q | 5.06 | 2/3 | 4/9 |
| S28P/Q95W/Y97G | 4.82 | 2/3 | 3/9 |
| Q27R/W56R/P101A | not detected | 0/3 | 2/9 |
| S25C/S58E/Q96I | 4.31 | 3/3 | 3/9 |
| V29H/S38V/P101Q | 3.79 | 1/3 | 0/9 |
| S28C/V29D/Q96T | not detected | 0/3 | 0/9 |
| A57W/S62K/R99T | 5.12 | 1/3 | 2/9 |
| R34D/N35D/S103G | 1.03 | 3/3 | 2/9 |
| K24T/R34W/A57H | not detected | 0/3 | 1/9 |

Repeated from above, the 10 best binders with a signal in all replicates:

changes	log10 Kd (nM), mean	detected	empty controls
K24R/S25I/E32D	-0.15	3/3	3/9
S25C/Q27P/E61H	0.27	3/3	0/9
R34D/K36M/L102E	0.56	3/3	5/9
Y31H/N35L/L100Y	0.66	3/3	1/9
S25G/S33N/A57G	0.74	3/3	0/9
Q27M/N37D/H98Y	0.75	3/3	1/9
S25E/Q27I/Y31G	0.78	3/3	5/9
S62T/Y97G/L102G	0.81	3/3	0/9
Y31L/K36H/R99T	0.87	3/3	1/9
S33G/K36I/S103L	0.89	3/3	4/9

Values reported by Engelhart et al. 2022, doi:10.1038/s41597-022-01779-4 (FLAb copy).